Measured values as given in US20250032569A1, “COMPOSITION, IN PARTICULAR COSMETIC FORMULATION, COMPRISING A VERBASCOSIDE EXTRACT” (MEDENA AG, priority 2021, published 2025).

Test: UVA/UVB ratio from absorption spectra (Eq. 3) and Boots UVA Star Rating
Assay type: physicochemical
Protocol: Critical Wavelength (λC) and the UVA/UVB ratios were also calculated from the absorption spectra and were collected in Table 2. […] According to these International indications, aqueous solutions of Haberlea rhodopensis with different concentrations of myconoside can be attributed to the group of good protection (2 UVA Star Rating).
In order to further characterize solutions as skin photo-protectors from UVA, the UVA/UVB ratio was calculated using Eq. 3: […]
In order to characterize the ability of creams to protect skin against UVA the UVA/UVB ratio was calculated using Eq. 3: […]

UVA/UVB (chemical UV filter 0.5% in sun protective solution): 2.26 | UVA/UVB (chemical UV filter 1% in sun protective solution): 2.26 | UVA/UVB (chemical UV filter 2.5% in sun protective solution): 2.26 | UVA/UVB (chemical UV filter 5% in sun protective solution): 2.26 | ratio UVA/UVB (chemical sunscreen, no concentration stated): 2.26
Substance: butylmethoxydibenzoylmethane [avobenzone]
